Only a part is listed here, and it is no random draw. Calls of active or inactive are those of the source. Calls follow the shape of the dose curve; as a rule, active = well fitted activation curve with a large enough effect; inconclusive = small, poorly fitted or top-dose-only effect; inactive = no such curve, though single readings can be large or run the other way.
assay: qHTS Assay for Compounds that Induce Erasure of Genomic Imprints; conditions: mouse ES Peg3-LacZ reporter, beta-gal luminescence, 40 h; at 10.9 µM unless noted;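 also: 0% = negative control wells on the plate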

Row | SMILES | activity change, positive = activation
1 | CCC(CO)(C(=O)OC1CN2CCC1CC2)c1ccccc1 (configuration not stated) | inactive: -5.34% [at 60.7 µM]
2 | COc1cc(C(=O)NCC2(N3CCOCC3)CCCCC2)cc(OC)c1OC | inactive: -4.24%
3 | CCOc1ncccc1C(=O)NCC1(N2CCOCC2)CCCCC1 | inactive: -14.6% [at 60.7 µM]
4 | O=C(O)C1(Nc2ccccc2)CCN(Cc2ccccc2)CC1 | inactive: 5.77%
5 | CC(C)(C)c1ccc(C(=O)NCC2(N3CCOCC3)CCCCC2)cc1 | inactive: -19.6%
6 | Cc1ccccc1C(=O)NCC1(N(C)C)CCCCC1 | inactive: -6.39%
7 | CN(C)C1(CNC(=O)c2ccc(C(C)(C)C)cc2)CCCCC1 | inactive: -13.1%
8 | O=C(NCC1(N2CCOCC2)CCCCC1)c1ccccc1 | inactive: 9.25%
9 | ClCCOP(OCCCl)OCCCl | inactive: -0.416% [at 60.7 µM]
10 | O=C(NCC1(N2CCOCC2)CCCCC1)c1ccc([N+](=O)[O-])cc1 | inactive: 13.9%
11 | O=C(NCC1(N2CCOCC2)CCCCC1)c1ccccc1[N+](=O)[O-] | inactive: -6.28%
12 | N/C(=N\O)c1c(N)no[n+]1[O-] | inactive: -3.72% [at 60.7 µM]
13 | NC1CCCCC1.NP(=O)(O)N(CCCl)CCCl | inactive: -0.403%
14 | CCCCOc1ccccc1C(=O)NCC1(N2CCOCC2)CCCCC1 | inactive: -13%
15 | O=C(NCC1(N2CCOCC2)CCCCC1)c1ccccc1Br | inactive: -13.8%
16 | CCOP(=O)(Cl)Cl | inactive: -3.61% [at 60.7 µM]
17 | CCCOc1cccc(C(=O)NCC2(N3CCOCC3)CCCCC2)c1 | inactive: -17.1%
18 | CCOc1ccc(C(=O)NCC2(N3CCOCC3)CCCCC2)cc1 | inactive: -17.2%
19 | N#CC1(Nc2ccccc2)CCN(CCc2ccccc2)CC1 | inactive: -7.42% [at 60.7 µM]
20 | O=C(NCC1(N2CCOCC2)CCCCC1)c1ccc(Cl)cc1 | inactive: -2.64%
21 | COc1ccccc1C(=O)NCC1(N2CCOCC2)CCCCC1 | inactive: -7.66%
22 | O=C(OC1CN2CCC1CC2)C1c2ccccc2Oc2ccccc21 (configuration not stated) | inactive: 0.213% [at 60.7 µM]

Source: PubChem BioAssay AID1948 (National Center for Advancing Translational Sciences (NCATS), 2009)
